The values below come from patent publication US8598357B2, “Benzodioxole piperidine compounds” (Hoffmann-La Roche Inc., priority 2011, dated 2013).

By UniProt entry, the sequences of proteins in these tests, tags left out.
UniProt P14416, whole entry: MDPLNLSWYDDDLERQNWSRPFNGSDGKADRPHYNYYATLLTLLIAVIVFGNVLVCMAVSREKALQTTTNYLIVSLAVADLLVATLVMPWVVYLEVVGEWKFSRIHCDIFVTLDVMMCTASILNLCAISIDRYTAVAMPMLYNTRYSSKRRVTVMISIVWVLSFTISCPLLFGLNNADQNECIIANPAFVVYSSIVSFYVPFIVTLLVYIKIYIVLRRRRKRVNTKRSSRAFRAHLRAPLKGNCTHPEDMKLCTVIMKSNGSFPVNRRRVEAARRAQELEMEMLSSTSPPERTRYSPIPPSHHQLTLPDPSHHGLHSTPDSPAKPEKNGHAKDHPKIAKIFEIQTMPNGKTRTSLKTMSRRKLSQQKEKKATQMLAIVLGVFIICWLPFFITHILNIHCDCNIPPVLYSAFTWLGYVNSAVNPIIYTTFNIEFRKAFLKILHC

This experiment concerns the target D2 receptor (Homo sapiens (Human), UniProt P14416). The experiment can be described thus: Radioligand binding assay ([3H]-spiperone) on membranes of HEK293 EBNA cells expressing human D2 receptor. The settings on record: human receptor in HEK293 EBNA cells; 0.7 nM [3H]-spiperone.

With `O=C(CC1COCCO1)N[C@H]1CC[C@H](CCN2CCC(c3cccc4c3OCO4)CC2)CC1` (stereo partly drawn) [Example 3, Trans-N-{4-[2-(4-Benzo[1,3]dioxol-4-yl-piperidin-1-yl)-ethyl]-cyclohexyl}-2-[1,4]dioxan-2-yl-acetamide], affinity was put at a Ki of 530 nM.
